Read-outs that look alike come from different tables or passages of the source.
Experiments:
Format in all cases: biochemical
[1] = biological target: PDE5A (Homo sapiens, UniProt O76074); test: PDE enzyme activity assay (HTRF cGMP), PDE5A; details: read-out: PDE5A1 inhibition (IC50); recombinant enzyme
[2] = biological target: HDAC1 (Homo sapiens, UniProt Q13547); test: HDAC enzyme activity assay (fluorogenic substrate), HDAC1; details: read-out: HDAC1 inhibition (IC50), recombinant enzyme
[3] = biological target: HDAC2 (Homo sapiens, UniProt Q92769); test: HDAC enzyme activity assay (fluorogenic substrate), HDAC2; details: read-out: HDAC2 inhibition (IC50), recombinant enzyme
[4] = biological target: HDAC6 (Homo sapiens, UniProt Q9UBN7); test: HDAC enzyme activity assay (fluorogenic substrate), HDAC6; details: read-out: HDAC6 inhibition (IC50), recombinant enzyme
[5] = biological target: PDE9A isoform b (Homo sapiens, UniProt O76083); test: PDE enzyme activity assay (HTRF cGMP), PDE9A; details: read-out: PDE9A inhibition (IC50); recombinant enzyme; tested form: trans racemate at the pyrrolidine
[6] = tested form: trans racemate at the pyrrolidine

By UniProt entry, the sequences of proteins in these tests, tags left out. Residues count along the entry.
UniProt Q13547, whole entry: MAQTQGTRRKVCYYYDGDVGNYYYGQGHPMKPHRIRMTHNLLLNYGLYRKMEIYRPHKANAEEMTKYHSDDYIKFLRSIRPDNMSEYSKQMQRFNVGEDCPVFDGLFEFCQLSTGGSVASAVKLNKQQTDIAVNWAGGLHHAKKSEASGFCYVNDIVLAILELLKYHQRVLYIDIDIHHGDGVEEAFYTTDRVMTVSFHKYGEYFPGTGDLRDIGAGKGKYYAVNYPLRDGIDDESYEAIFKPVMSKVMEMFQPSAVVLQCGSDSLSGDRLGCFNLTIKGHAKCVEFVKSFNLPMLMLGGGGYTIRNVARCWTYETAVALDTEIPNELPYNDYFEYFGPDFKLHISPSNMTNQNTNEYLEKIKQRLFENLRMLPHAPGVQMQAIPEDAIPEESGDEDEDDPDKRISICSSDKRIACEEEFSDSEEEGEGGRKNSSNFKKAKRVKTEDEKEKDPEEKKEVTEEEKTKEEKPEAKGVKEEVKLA
UniProt Q92769, whole entry: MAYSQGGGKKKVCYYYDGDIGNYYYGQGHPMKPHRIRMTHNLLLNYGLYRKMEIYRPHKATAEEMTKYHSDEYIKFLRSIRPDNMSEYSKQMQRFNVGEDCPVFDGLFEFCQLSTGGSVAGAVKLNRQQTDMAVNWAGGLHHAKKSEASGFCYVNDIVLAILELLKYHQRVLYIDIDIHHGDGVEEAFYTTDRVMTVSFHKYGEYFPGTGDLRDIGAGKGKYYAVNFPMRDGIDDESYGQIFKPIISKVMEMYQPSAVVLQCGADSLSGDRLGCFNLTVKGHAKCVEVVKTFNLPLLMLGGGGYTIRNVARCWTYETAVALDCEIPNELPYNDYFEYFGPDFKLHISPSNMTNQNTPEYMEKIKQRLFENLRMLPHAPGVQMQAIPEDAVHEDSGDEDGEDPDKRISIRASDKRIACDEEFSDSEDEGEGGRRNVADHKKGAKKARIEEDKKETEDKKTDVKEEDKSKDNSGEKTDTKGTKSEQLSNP
UniProt Q9UBN7, whole entry: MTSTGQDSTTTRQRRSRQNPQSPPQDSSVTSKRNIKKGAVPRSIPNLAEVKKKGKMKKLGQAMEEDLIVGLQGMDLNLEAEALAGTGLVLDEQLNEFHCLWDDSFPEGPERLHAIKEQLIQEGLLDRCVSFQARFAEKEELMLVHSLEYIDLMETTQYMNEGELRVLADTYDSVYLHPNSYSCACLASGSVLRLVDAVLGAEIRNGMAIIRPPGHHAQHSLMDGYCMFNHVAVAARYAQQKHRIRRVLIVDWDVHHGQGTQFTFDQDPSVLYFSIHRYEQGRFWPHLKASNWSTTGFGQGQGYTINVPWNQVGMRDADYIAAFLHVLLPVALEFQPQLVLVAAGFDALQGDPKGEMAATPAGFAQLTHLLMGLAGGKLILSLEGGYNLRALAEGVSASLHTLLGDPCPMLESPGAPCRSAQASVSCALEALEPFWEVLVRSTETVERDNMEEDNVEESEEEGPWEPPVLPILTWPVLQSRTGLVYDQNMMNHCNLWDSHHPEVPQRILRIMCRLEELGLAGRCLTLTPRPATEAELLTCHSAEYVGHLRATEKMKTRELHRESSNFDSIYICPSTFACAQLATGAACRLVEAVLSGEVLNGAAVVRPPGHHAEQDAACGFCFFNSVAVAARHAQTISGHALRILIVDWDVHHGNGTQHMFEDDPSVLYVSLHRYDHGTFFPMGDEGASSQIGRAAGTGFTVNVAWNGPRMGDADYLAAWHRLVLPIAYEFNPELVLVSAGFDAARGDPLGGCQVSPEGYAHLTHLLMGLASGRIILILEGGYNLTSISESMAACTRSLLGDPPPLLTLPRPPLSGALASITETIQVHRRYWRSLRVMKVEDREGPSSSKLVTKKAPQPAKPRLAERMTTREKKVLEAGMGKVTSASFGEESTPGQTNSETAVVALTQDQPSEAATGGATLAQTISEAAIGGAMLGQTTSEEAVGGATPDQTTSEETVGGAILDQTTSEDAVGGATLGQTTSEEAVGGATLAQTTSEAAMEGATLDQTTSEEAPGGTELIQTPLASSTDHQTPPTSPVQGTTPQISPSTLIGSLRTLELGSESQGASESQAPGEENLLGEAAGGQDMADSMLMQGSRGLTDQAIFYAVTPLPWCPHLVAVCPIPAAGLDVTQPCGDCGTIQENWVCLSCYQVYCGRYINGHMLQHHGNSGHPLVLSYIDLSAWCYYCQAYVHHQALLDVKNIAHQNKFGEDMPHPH
UniProt O76083, 1-533 isoform 2: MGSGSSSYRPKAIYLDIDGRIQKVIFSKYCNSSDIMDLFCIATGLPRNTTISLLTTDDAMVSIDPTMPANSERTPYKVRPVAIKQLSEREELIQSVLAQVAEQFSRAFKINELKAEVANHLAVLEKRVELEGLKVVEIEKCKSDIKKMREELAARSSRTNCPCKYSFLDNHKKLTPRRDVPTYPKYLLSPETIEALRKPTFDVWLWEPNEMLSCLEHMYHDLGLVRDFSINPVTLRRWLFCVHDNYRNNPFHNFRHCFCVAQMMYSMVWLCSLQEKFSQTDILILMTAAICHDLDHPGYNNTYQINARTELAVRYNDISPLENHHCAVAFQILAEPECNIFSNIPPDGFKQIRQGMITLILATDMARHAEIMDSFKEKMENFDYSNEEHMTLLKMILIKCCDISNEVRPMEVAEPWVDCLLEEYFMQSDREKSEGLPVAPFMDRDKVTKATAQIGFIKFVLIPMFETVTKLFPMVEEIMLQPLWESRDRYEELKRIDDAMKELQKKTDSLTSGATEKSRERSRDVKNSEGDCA

Row | IC50 [1] | IC50 [2] | IC50 [3] | IC50 [4] | IC50 [5] | IC50 [2, 6] | IC50 [3, 6] | IC50 [4, 6] | SMILES
1 | 0.01 to 1 µM | 1 to 10 µM | > 10 µM | > 10 µM | – | – | – | – | CCCc1nn(C)c2c(=O)[nH]c(-c3cc(NC4CCC(C(=O)NO)CC4)ccc3OCC)nc12 (centres unmarked)
2 | – | – | – | – | 0.01 to 1 µM | 1 to 10 µM | > 10 µM | 1 to 10 µM | CC1CN(C2CC(C(=O)NO)C2)CC1c1nc2c(cnn2C2CCOCC2)c(=O)[nH]1 (centres unmarked)

Source: patent publication US9573956B2, “Compounds as dual inhibitors of phosphodiesterases and histone deacetylases” (FUNDACIÓN PARA LA INVESTIGACIÓN MÉDICA APLICADA, priority 2013, dated 2017)
